Measured values reported in ChEMBL document CHEMBL3259558, “Identification of amides derived from 1H-pyrazolo[3,4-b]pyridine-5-carboxylic acid as potent inhibitors of human nicotinamide phosphoribosyltransferase (NAMPT)” (Bioorg Med Chem Lett, 2013).

Chains of the proteins cited; added tags and fusions are not shown. Lines headed by an entry give the natural chain unless they say otherwise; changes in a name come on top.
UniProt P43490: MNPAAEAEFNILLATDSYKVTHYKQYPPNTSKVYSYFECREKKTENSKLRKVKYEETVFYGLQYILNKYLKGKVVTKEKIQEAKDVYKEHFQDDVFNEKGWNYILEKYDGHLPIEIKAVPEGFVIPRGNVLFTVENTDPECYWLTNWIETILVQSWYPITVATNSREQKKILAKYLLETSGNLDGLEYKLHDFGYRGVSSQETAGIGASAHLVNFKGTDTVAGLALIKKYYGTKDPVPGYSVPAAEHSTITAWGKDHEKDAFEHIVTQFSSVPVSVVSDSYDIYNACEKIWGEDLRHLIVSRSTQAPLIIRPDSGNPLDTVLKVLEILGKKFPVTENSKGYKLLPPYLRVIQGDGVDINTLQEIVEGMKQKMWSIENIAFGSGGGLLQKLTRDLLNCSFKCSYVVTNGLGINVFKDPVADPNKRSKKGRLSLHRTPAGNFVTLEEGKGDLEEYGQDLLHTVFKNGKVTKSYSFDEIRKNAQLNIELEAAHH

Target: Nicotinamide phosphoribosyltransferase (Homo sapiens, UniProt P43490)
Assay: Inhibition of C-terminal His-6-tagged full length human NAMPT expressed in Escherichia coli (DE3) cells after 30 mins by mass spectrometry-based analysis

O=C(NCc1ccc(S(=O)(=O)N2CCC(N3CCCC3)CC2)cc1)c1cnc2[nH]ncc2c1
IC50: 300 nM
